## OPERA 2.9 data: properties

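OPERA's authors assembled the values from existing databases and did not measure them anew. A listed value is a point estimate from one report or more. How each value was measured is not recorded, so precision varies. A value may pool stereoisomers or salt forms, and the file does not say which form was measured. Some entries may be limits or estimates that an upstream database listed as plain numbers.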

Melting points are in °C.
Boiling points are in °C, nominally at 760 mmHg.
The octanol-water partition coefficient is given as log10; larger values mean a more lipophilic compound.
Water solubility is log10 of mol/L, nominally at 25 °C; higher is more soluble.
Vapor pressures (log10 mmHg) refer to near room temperature, 15 to 30 °C; higher is more volatile.
Henry's law constant (air-water partitioning) is log10 of atm·m3/mol, nominally at 25 °C.
fu is the fraction unbound in human plasma, from 0 to 1.

For CC(C)=CC1CC(C)CCO1 (stereo not given) the data give logP (octanol/water) 3.45 and log solubility -2.224 (log10 mol/L) and vapor pressure -0.32 (log10 mmHg).
For c1cc(OCC2CO2)c2ccc(OCC3CO3)cc2c1 (stereo not given) the data give MP -8.15 °C and logP (octanol/water) 2.3 and log solubility -3.919 (log10 mol/L) and vapor pressure -6.244 (log10 mmHg).
For CCCC(C)C(=O)OCC (stereo not given) the data give logP (octanol/water) 2.09 and log solubility -2.49 (log10 mol/L) and vapor pressure 0.754 (log10 mmHg).
For CC1CCS(=O)(=O)C1 (stereo not given) the data give MP -1.55 °C and logP (octanol/water) -0.4 and vapor pressure -2.139 (log10 mmHg).
For C[C@@H](Oc1ccc(O)cc1)C(=O)[O-].[HH].[K+] the data give MP 103 °C and vapor pressure -8.046 (log10 mmHg).
For CCN(CC[N+](C)(C)C)c1ccc(/N=N/c2ccc([N+](=O)[O-])cc2Cl)cc1.[Cl-] the data give logP (octanol/water) 0.364 and log solubility -3.039 (log10 mol/L).
For CC1=NN(c2ccccc2)C(=O)C1/N=N/c1cccc([N+](C)(C)C)c1.[Cl-] (stereo partly drawn) the data give logP (octanol/water) 1.14 and log solubility -1.894 (log10 mol/L).
For COC(=O)COc1nc(F)c(Cl)c(N)c1Cl the data give logP (octanol/water) 2.22 and log solubility -3.967 (log10 mol/L) and vapor pressure -6.056 (log10 mmHg).
For O=Cc1cccc2c1OC(F)(F)O2 the data give logP (octanol/water) 2.2 and log solubility -2.156 (log10 mol/L) and vapor pressure -0.534 (log10 mmHg).
For CCCCC[C@H](O)/C=C/[C@H]1[C@H](O)CC(=O)[C@@H]1CCCCCCC(=O)O the data give log solubility -3.67 (log10 mol/L) and fu 0.08.
For CCCCCCCCCCCCCCCCCCN(CCO)CCCN(CCO)CCO.F.F the data give MP 12.7 °C and logP (octanol/water) 1.94.
For CC/C=C\CCOC(=O)OC the data give logP (octanol/water) 3 and log solubility -3.07 (log10 mol/L) and vapor pressure -0.596 (log10 mmHg).
For CCCCCCCC(O)=NCCCC[C@H](N)C(=O)O the data give log solubility 0.058 (log10 mol/L) and vapor pressure -5.361 (log10 mmHg).
For CCC(C)=CCCC(C)=CC#N the data give log solubility -3.59 (log10 mol/L) and vapor pressure -1.894 (log10 mmHg).
For C=CC(=O)NCOCCCC the data give MP -59.25 °C and vapor pressure -2.686 (log10 mmHg).
For Cc1ccc(S(=O)(=O)Nc2ccc(C)c(Nc3cc(S(=O)(=O)[O-])c(N)c4c3C(=O)c3ccccc3C4=O)c2)cc1.[Na+] the data give MP 260 °C and logP (octanol/water) 0.845.
For CNC(=S)NN the data give vapor pressure -6.286 (log10 mmHg) and log Henry constant -11.75 (log10 atm·m3/mol).
For CC(C)c1ccc(S(=O)(=O)O)cc1 the data give MP 12 °C and boiling point 170.5 °C and logP (octanol/water) 0.41.
For CCCC1CCC(c2ccc(-c3ccc(CC)cc3)cc2)CC1 (stereo not given) the data give MP 166 °C and log solubility -7.185 (log10 mol/L) and vapor pressure -7.355 (log10 mmHg).
For O=[N+]([O-])c1ccccc1-c1ccc(Cl)cc1 the data give MP 62.5 °C and log solubility -4.937 (log10 mol/L) and vapor pressure -4.846 (log10 mmHg).
For Cc1ccc2oc(C=Cc3nc4cc(C)ccc4o3)nc2c1 the data give logP (octanol/water) 3.91 and log solubility -6 (log10 mol/L).
For CC(CC(=O)[O-])CC(C)(C)C.[Na+] (stereo not given) the data give MP 285 °C and logP (octanol/water) 0.045 and vapor pressure -8.745 (log10 mmHg).
For Nc1ccc(OCCO)c(N)c1.O=S(=O)(O)O the data give logP (octanol/water) -0.54 and vapor pressure -4.184 (log10 mmHg).
For C=CCOCC(O)CO (stereo not given) the data give boiling point 245 °C and logP (octanol/water) 0.286.
For CO[C@@H]1C[C@H](C)CC[C@H]1C(C)C the data give logP (octanol/water) 4.369 and log solubility -3.93 (log10 mol/L) and vapor pressure -0.23 (log10 mmHg).

4 of these entries, quoted again:

{"smiles": "CCCCCCCC(O)=NCCCC[C@H](N)C(=O)O", "log solubility (log10 mol/L)": "0.058", "vapor pressure (log10 mmHg)": "-5.361"}
{"smiles": "CC(C)c1ccc(S(=O)(=O)O)cc1", "MP (°C)": "12", "boiling point (°C)": "170.5", "logP (octanol/water)": "0.41"}
{"smiles": "C=CC(=O)NCOCCCC", "MP (°C)": "-59.25", "vapor pressure (log10 mmHg)": "-2.686"}
{"smiles": "CCCCCCCCCCCCCCCCCCN(CCO)CCCN(CCO)CCO.F.F", "MP (°C)": "12.7", "logP (octanol/water)": "1.94"}

Values as listed in the OPERA 2.9 repository of K. Mansouri.